Assay results as given in patent US9303033B2, “Pyrazolopyrimidines and related heterocycles as CK2 inhibitors” (SENHWA BIOSCIENCES, INC., priority 2009, dated 2016).

Sequences of proteins named here, by UniProt entry; tags and fusion partners are left off. A change or cut given only in a name is not applied to a line headed by its entry.
UniProt P11309, whole entry: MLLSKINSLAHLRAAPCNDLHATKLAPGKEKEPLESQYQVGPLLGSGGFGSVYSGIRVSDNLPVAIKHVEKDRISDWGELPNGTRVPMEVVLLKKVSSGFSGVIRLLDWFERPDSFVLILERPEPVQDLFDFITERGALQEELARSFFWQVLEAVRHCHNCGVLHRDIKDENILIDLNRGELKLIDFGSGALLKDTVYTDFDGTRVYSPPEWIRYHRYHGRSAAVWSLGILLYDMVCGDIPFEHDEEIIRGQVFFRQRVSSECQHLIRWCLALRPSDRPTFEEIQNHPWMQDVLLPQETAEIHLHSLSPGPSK
UniProt Q9P1W9: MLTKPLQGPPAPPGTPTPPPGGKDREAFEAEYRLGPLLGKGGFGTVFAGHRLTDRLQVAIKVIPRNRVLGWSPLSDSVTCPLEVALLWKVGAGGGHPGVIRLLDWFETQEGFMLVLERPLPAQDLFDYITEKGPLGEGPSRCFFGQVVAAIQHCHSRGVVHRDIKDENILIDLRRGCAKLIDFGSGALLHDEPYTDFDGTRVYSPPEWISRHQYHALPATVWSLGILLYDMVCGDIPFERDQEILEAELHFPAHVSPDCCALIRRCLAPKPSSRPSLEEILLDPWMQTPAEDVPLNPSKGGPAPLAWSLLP

Assays:
recombinant PIM-1 = recombinant PIM-1 (Homo sapiens (Human), UniProt P11309); experiment: PIM-1 assay (33P-ATP filter binding); assay type: biochemical; details: read-out: PIM1: IC50 (30 μM ATP)
Procedure: The following procedure was used to assay the PIM-1 kinase activity of compounds of the invention. Other methods for assaying PIM-1 and other PIM kinases, as well as methods to assay for activity against the various kinases for the kinase panel mentioned in FIGS. 1 and 2, are known in the art.
In a final reaction volume of 50 ul, recombinant PIM-1 (1 ng) was incubated with 12 mM MOPS pH 7.0, 0.4 mM EDTA, glycerol 1%, brij 35 0.002%, 2-mercaptoethanol 0.02%, BSA 0.2 mg/ml, 100 uM […] (SEQ ID NO.: 5), 10 mM MgAcetate, 15 uM ATP, [γ-^33P-ATP] (specific activity approx. 500 cpm/pmol), DMSO 4% and test inhibitor compound at the required concentration. The reaction was initiated by the addition of the Magnesium ATP mixture. After 40 min incubation at 23° C., the reactions were quenched by the addition of 100 ul 0.75% Phosphoric acid, and the labeled peptide collected by filtration through a phosphocellulose filter plate. The plate was washed 4 times with 0.075% phosphoric acid (100 ul per well) and then, after the addition of scintillation fluid (20 ul per well), the counts were measured by a scintillation counter.

recombinant human PIM2 = recombinant human PIM2 (Homo sapiens (Human), UniProt Q9P1W9); experiment: PIM-2 assay (33P-ATP filter binding); assay type: biochemical; details: PIM2: IC50 (5 μM ATP)

| Compound | IC50 (recombinant PIM-1) | IC50 (recombinant human PIM2) |
| --- | --- | --- |
| CCN(CC)CCNc1cc(NC2CC2)n2ncc(/C=C3\SC(=O)NC3=O)c2n1 [Example O3] | 1.25 µM |  |
| O=C1NC(=O)/C(=C/c2cnn3c(NC4CCNC4)cc(Nc4cccc(Cl)c4)nc23)N1 (centres unmarked) [Example P6] |  | 0.701 µM |
